Reference: paper PMC4245550, “Exploring the Chemodiversity and Biological Activities of the Secondary Metabolites from the Marine Fungus Neosartorya pseudofischeri” (Marine Drugs, 2014)

System: RKO (a poorly differentiated colon carcinoma cell line)
Experiment: Cytotoxicity, MTS assay
Details: 72 h

Row | Compound | IC50 (Homo sapiens, RKO) | IC50 (RKO cells, MTS, n = 5)
1 | CN1C(=O)C2(S)CC3=CC=CC(O)C3N2C(=O)C1(S)CO (centres unmarked) [Compound 9, reduced gliotoxin] | 0.41 ± 0.07 µM | 
2 | CSC1(CO)C(=O)N2c3ccccc3CC2(SC)C(=O)N1C (centres unmarked) [Compound 12, didehydrobisdethiobis(methylthio)gliotoxin] | > 50 µM | 
3 | CN1C(=O)[C@]23CC4=CC=C[C@H](O)[C@H]4N2C(=O)[C@@]1(CO)SS3 [Compound 7, gliotoxin] | 0.8 ± 0.2 µM | 
4 | bisdethiobis(methylthio)gliotoxin [Compound 11] |  | 10.32 ± 0.04 µM
5 | CSC1(CO)C(=O)N2C3C(=CC=CC3OC(C)=O)CC2(SC)C(=O)N1C (centres unmarked) [Compound 10, 6-acetylbis(methylthio)gliotoxin] | > 50 µM | 
